Tests used:
TcAK1 = TcAK1 (Tribolium castaneum, UniProt A0A2L1GIW8); test: coupled hexokinase / glucose-6-phosphate dehydrogenase assay, […] nm, Lineweaver-Burk; settings: read-out: Km^p-Arg; reverse reaction; 5 mM ADP, 20 mM MgCl2, 50 mM Tris-HCl pH 7.5, 30 °C; phospho-L-arginine varied 0.05-5 mM (printed Km lies above this range)
TcAK2 = TcAK2 (Tribolium castaneum, UniProt A0A2L1GIW2); test: as above; settings: read-out: Km^p-Arg; reverse reaction; 5 mM ADP, 20 mM MgCl2, 50 mM Tris-HCl pH 7.5, 30 °C; phospho-L-arginine varied 0.05-5 mM

Amino acid sequences for entries named in this document (tags omitted). Residues count along the entry.
UniProt A0A2L1GIW8, 1-355: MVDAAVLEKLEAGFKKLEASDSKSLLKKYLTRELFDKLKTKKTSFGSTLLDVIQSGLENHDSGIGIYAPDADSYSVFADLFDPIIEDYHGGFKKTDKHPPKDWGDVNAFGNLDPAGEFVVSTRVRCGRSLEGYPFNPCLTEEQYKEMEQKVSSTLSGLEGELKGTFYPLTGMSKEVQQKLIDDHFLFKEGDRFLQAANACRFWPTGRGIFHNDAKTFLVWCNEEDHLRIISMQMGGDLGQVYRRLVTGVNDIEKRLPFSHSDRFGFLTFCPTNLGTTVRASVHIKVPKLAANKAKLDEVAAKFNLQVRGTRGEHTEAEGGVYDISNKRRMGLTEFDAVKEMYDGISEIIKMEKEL
UniProt A0A2L1GIW2, 1-371: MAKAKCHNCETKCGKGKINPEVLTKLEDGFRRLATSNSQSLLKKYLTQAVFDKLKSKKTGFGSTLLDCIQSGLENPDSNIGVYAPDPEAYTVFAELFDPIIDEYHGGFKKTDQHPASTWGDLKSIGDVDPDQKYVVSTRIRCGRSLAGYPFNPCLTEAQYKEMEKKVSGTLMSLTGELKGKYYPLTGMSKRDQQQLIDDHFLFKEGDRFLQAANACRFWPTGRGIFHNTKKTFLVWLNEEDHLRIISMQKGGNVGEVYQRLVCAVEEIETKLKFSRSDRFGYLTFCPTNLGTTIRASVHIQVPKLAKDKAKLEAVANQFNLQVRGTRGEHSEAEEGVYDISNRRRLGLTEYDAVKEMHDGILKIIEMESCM

## N=C(NCCC[C@H](N)C(=O)O)NP(=O)(O)O
TcAK1
  Km: 14 mM
TcAK2
  Km: 1.4 mM
